## Yeast mating assay B: variants of the scFv Ab-14

The target is the same throughout: PDVDLGDISGINAS, from the HR2 region of SARS-CoV-2 spike.

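This is the validation round: designs drawn from the data on random variants, tested in the same kind of assay. Several design methods are mixed in this list. Affinity was read by AlphaSeq, a pooled yeast mating assay with surface-displayed partners. Mating (16 h, 30 °C) was followed by selection of diploids and sequencing of their barcodes. A regression on co-assayed BCL2-family reference pairs converts the normalised counts of each replicate to an apparent Kd. There are six technical replicates.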

Each scFv is VH, three GGGGS repeats, VL, as in the parent Ab-14, and differs from it in the CDRs of the light chain only.
VH: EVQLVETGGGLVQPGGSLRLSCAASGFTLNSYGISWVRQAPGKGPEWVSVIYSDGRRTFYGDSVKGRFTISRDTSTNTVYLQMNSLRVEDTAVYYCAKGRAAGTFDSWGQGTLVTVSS
VL: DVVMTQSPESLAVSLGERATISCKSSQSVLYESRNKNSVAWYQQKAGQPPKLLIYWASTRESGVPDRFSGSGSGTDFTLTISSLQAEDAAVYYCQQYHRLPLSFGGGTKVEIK

Each variant is given by its three light chain CDRs, as the data file delimits them; those of the parent are KSSQSVLYESRNKNSVA, WASTRES, QQYHRLPLS. The read-out is the apparent dissociation constant on a log10 scale (nM): the lower, the stronger. Replicates are averaged; those with no signal do not enter the mean. "nd" marks a missing value. The strain was present, yet no cells mated with the target were sequenced in that replicate, which points to weak or no binding.

CDR-L1	CDR-L2	CDR-L3	log10 Kd (nM) by replicate	log10 Kd (nM), mean
RLYNQGTEQIQHANSIA	DRDEVDS	QQYAHLPLS	1.06 / 1.33 / 0.96 / 1.18 / 1.47 / 1.39	1.23
TISQMTSLFSQSINNVA	EVSTREK	QQYDRLPLS	0.21 / 1.02 / 1.14 / -0.15 / 0.27 / 0.39	0.48
KLSQVTRYESRNKNSIA	EMVTREK	QQYDRLPLS	1.56 / 1.55 / 1.50 / 0.90 / 1.33 / 2.20	1.51
KLEQQTLYESRNKNSVA	WASTREE	QQYHRLPLS	3.32 / 0.28 / 0.50 / 1.38 / 0.79 / 0.82	1.18
HVAMECAEEKNSYRNIA	DASMRLA	QQYVRLPLG	0.55 / 0.72 / 1.21 / 1.03 / 0.22 / 1.17	0.82
HLSQSELYESRNKNSVA	NASQRES	QQYHRLPLS	-0.27 / -0.11 / -0.28 / -0.27 / -0.01 / 0.05	-0.15
KSGQGVLYESRNKNQVA	GASTRES	QQYHRLPLS	0.34 / 0.54 / 0.52 / 0.44 / 0.42 / 0.67	0.49
HITMGMYVSGRHHSSIA	QAETRAK	QQYDRLPLA	0.70 / 0.61 / -0.19 / 0.20 / 0.83 / 0.60	0.46
ILSQSVLYESRNKNHVA	WATTRES	QQYHRLPLS	1.63 / 1.39 / 1.43 / 1.92 / 2.01 / 1.83	1.70
KAPQGVLYESRNKNSVA	GASVRES	QQYHRLPLS	-0.11 / -0.19 / -0.26 / -0.22 / -0.19 / 0.03	-0.16
TISQSAYQESHNKNSVA	DLSVRGS	QQYHRLPLS	0.10 / 0.21 / -0.02 / 0.03 / 0.02 / 0.13	0.08
KVSQSVLYESRNSNSVA	KASTRES	QQYHRLPLS	0.36 / 0.19 / 0.18 / 0.06 / 0.25 / 0.52	0.26
TISMSMNWLTRNKNSIA	EESTRQD	QQYDRLPLS	1.52 / 1.67 / 1.80 / 1.92 / 1.62 / 2.35	1.81
KSSQSILYESRQKNSVA	WASTRES	QQYHRLPLS	1.53 / 2.01 / 3.88 / 1.58 / 3.64 / 2.10	2.46
KSSQTVAYESRNKNSVA	RASTRES	QQYHRLPLS	nd / 1.30 / 1.77 / 2.14 / 2.32 / 2.39	1.99
KTPQGVLYESRNKNSVA	HASVRES	QQYHRLPLS	0.83 / 0.72 / 0.63 / 0.94 / 0.49 / 0.87	0.75
KMQTLMYTANIGENSVA	DANVHVD	QQYFRLPLS	0.82 / 1.22 / 0.40 / 0.44 / 1.06 / 0.90	0.81
KLSMSYRFETLEKNSIA	ELVTRMS	QQYHRLPLS	nd / nd / nd / nd / nd / nd	nd
KSSQSELEESRNKNSVA	WASTRES	QQYHRLPLS	1.82 / 1.84 / 2.05 / nd / nd / nd	1.90
KLPQSEPYEERCFNSVA	NASTRCS	QQYHRLPLS	0.39 / 0.29 / 0.08 / -0.12 / 0.34 / 0.19	0.19
AFTNSIFYGQRDSNAIA	HADVLEK	QQYFRFPLA	0.96 / 0.78 / 0.57 / 0.85 / 0.54 / 2.13	0.97
KFQIGMNQGSSMEHNIA	EGTYAEE	QQYARLPLQ	0.46 / 0.44 / 0.06 / 0.83 / 0.68 / 1.04	0.59
KLANYMYQGGLVQANVA	EAKELWE	QQYGHLPLA	1.15 / 1.00 / 0.78 / 0.98 / 0.78 / 0.93	0.94
TLYGLSMSMSKNKNNVA	EMTTREK	QQYDRLPLF	0.54 / 0.62 / 0.26 / 0.20 / 0.46 / 0.59	0.44
KLSQSVPYESRNKNSVA	NASTREQ	QQYHRLPLS	0.31 / 0.09 / 0.24 / 0.24 / 0.26 / 0.33	0.25
KLRQSTLYESHNKNSVA	AASTRES	QVYHRLPLS	1.17 / 1.02 / 1.14 / 1.30 / 1.39 / 1.62	1.27
KYQQSEPYESRNKNSVA	NASTRES	QQYHQLPLS	0.44 / 0.61 / 0.41 / 0.27 / 0.52 / 0.64	0.48
KESQSELYESRNKNSVA	GASTRES	QQYHRLPLS	-0.15 / -0.32 / -0.15 / -0.45 / -0.50 / -0.13	-0.28
KLSQSELYESRNKNSVA	NASTRES	QQYHRLPLI	0.29 / 0.28 / 0.36 / 0.27 / 0.36 / 0.67	0.37
IAEQSWLYESRNKNSVA	GASTRES	QQYHRLPLI	0.79 / 0.46 / 0.66 / 0.45 / 0.49 / 0.69	0.59
KLRMSTAYLSEIKNSVA	ELTTRGN	QQYFRLPLS	1.30 / 1.05 / 0.81 / 0.75 / 0.76 / 1.29	0.99
KSSQSYLYESRNTNSVA	EASTRES	QQYHRLPLS	nd / 0.77 / nd / 2.09 / nd / 1.57	1.47
KLPQSDLYEGRNSNSVA	NASTRFS	QQYHRLPLS	0.06 / -0.09 / -0.25 / -0.14 / -0.20 / -0.05	-0.11
KLMQSVEYESRLANSVA	NASTRLE	QQYHRLPLS	-0.09 / -0.13 / -0.17 / -0.13 / -0.08 / 0.01	-0.10
KSSQSNIYDSRNKNSVA	WASTRES	AQYHRIPLS	nd / nd / nd / nd / nd / nd	nd
MISDLTMMGSRNKNSVA	DLSTRGS	QQYARLPLS	0.19 / -0.08 / -0.16 / -0.21 / -0.05 / 0.10	-0.04
KVSQSVLYESRNKNSVA	EASQRES	QQYHRLPLS	0.30 / -0.13 / -0.16 / -0.10 / 0.22 / 0.02	0.02
NVGQSTDGESRNKNSVA	HQSTRED	QHYHRLPLS	0.05 / 0.44 / 0.18 / 0.32 / 0.52 / 0.41	0.32
TISQMWFIESKNKNNVA	EMTTREN	QDYDRLPLS	0.59 / 0.34 / 0.47 / 0.23 / 0.30 / 0.09	0.34
SIGGVMKSQSAHRNSVA	DMTNREQ	QQYDRLPLS	0.20 / -0.18 / 0.12 / 0.61 / 0.04 / 0.28	0.18
QLPNYRGDGYLQKNNVA	EGTERSH	QQYMRLPLF	-0.05 / 0.27 / 0.13 / 0.20 / 0.31 / 0.03	0.15
HIDTEWNHGANRDNNIA	EAQTVAA	QDYFRLPII	nd / 2.25 / 1.95 / nd / 1.59 / nd	1.93
KSSQSVKNESRNKNSVA	DASTRES	QQYHRLPLS	0.70 / 0.52 / 0.42 / 0.15 / 0.56 / 0.84	0.53
KSQQSVEYESRNKNNVA	HASTRED	QQYARLPLS	0.55 / 0.16 / -0.10 / 0.70 / -0.19 / 1.48	0.43
KLSGSELYESRNKNSVA	GASTRES	QQYHRLPLS	-0.14 / -0.49 / -0.47 / -0.56 / -0.45 / -0.37	-0.41
KVDQSEMLESRWKNSVA	NASTRCS	QQYHRLPLS	0.29 / 0.14 / 0.18 / 0.06 / 0.15 / 0.19	0.17

4 of these entries, quoted again:

CDR-L1	CDR-L2	CDR-L3	log10 Kd (nM) by replicate	log10 Kd (nM), mean
KLSGSELYESRNKNSVA	GASTRES	QQYHRLPLS	-0.14 / -0.49 / -0.47 / -0.56 / -0.45 / -0.37	-0.41
KLSQVTRYESRNKNSIA	EMVTREK	QQYDRLPLS	1.56 / 1.55 / 1.50 / 0.90 / 1.33 / 2.20	1.51
RLYNQGTEQIQHANSIA	DRDEVDS	QQYAHLPLS	1.06 / 1.33 / 0.96 / 1.18 / 1.47 / 1.39	1.23
KVSQSVLYESRNSNSVA	KASTRES	QQYHRLPLS	0.36 / 0.19 / 0.18 / 0.06 / 0.25 / 0.52	0.26

The authors averaged sequences with at least three values out of six and counted those with two or fewer as poor binders. The range of this assay differs from that of the first round, and the authors advise against merging the two. Nonspecific signal, from three strains lacking the peptide, appeared in 4% of pairings of all light chain designs, centred on 2.64 (5% of these signals below 1.59); values are not corrected for it.

Source: Li et al. 2023 (doi:10.1038/s41467-023-39022-2), MIT Lincoln Laboratory and A-Alpha Bio; data file from the FLAb repository.